{
  "source": "patent US8273713B2",
  "about": "“Methods of treating obesity using PYY[3-36]” (Amylin Pharmaceuticals, LLC, priority 2000, dated 2012)",
  "format_in_all_cases": "in vivo",
  "key": {"food intake [1]": {"system": "food intake", "experiment": "Food intake in overnight-fasted NIH/SW mice", "settings": "10, 100 and 500 μg/kg intraperitoneal; measured over 60 min; overnight-fasted female NIH/SW mice", "experimental": "Female NIH/Swiss mice (8-12 weeks old) were group housed with a 12:12 hour light:dark cycle with lights on at 0600. Water and a standard pelleted mouse chow diet were available ad libitum, except as noted. Animals were fasted and housed individually starting at approximately 1500 hrs, 1 day prior to experiment. The morning of the experiment (approx. 0630 hrs), all animals were weighed and divided into experimental groups so as to give the most similar weight distribution between groups. In a typical study, n=10 for the control group and at least 5 for each treatment group. At time=0 min, all animals were given an intraperitoneal injection of vehicle or compound in a volume of 5 ml/kg and immediately given a pre-weighed amount (10-15 g) of the standard chow. Increasing dosages of PYY[3-36], or PYY (0.1 μg/kg to 500 μg/kg and NPY (100 and 500 μg/kg), and single high doses of NPY[3-36] (100 μg/kg), N-terminal acetylated Ac-PYY[22-36] (200 μg/kg) and PP (500 μg/kg) were provided, as indicated on FIG. 1. Food was removed and weighed at 1 hr to determine the amount of food consumed (Morley, Flood et al. Am J Physiol 267: […]-[…], 1994). Food intake was calculated by subtracting the weight of the food remaining after one hour from the weight of the food provided initially at time=0. The effects of treatment on food intake are expressed as % change relative to control. […]"}, "gastric emptying": {"system": "gastric emptying", "experiment": "Gastric emptying in HSD rats (3H-3-O-methyl-glucose gavage)", "settings": "doses greater or equal to 10 μg/kg intraperitoneal; measured at 40 minutes", "experimental": "Male HSD rats, 180-215 g, were housed with a 12:12 hour light:dark cycle and fasted for 20 hrs (overnight). At time=0 min, test peptide (PYY[3-36], PYY, Ac-PYY[22-36], NPY, NPY[3-36], or PP) or saline vehicle was injected (intraperitoneal) into conscious rats (n=6/group). At t=1 min, a solution of 1 mL sterile water containing 5 μCi of ^3H-3-O-methyl-glucose was gavaged by oropharyngeal tube to conscious rats. Blood samples (10 μl) were collected 40 min after gavage and assayed for counts per minute (CPM) in plasma. To eliminate pain during tail vein sampling, 2% Lidocaine (0.1 ml) was injected 3-4 cm from the end of the tail (Gedulin, Jodka et al. Gastroenterology 108: […], 1995). Effects of the test compound were expressed as percent change relative to control, which was calculated as -100*(1-(mean value test rats/mean value controls)). Relative activity was defined as significant if p<0.05 as determined by ANOVA. Where a significant difference existed, test means were compared to the control mean using Dunnett's test (Prism v2.01, GraphPad Software Inc., San Diego, Calif.)."}, "gastric acid secretion": {"system": "gastric acid secretion", "experiment": "Pentagastrin-stimulated gastric acid secretion in rats with gastric fistulae", "experimental": "(§1) Male Harlan Sprague Dawley rats were housed in a 12:12 hour light:dark cycle. All experiments were performed during the light cycle. Animals were fasted for approximately 20 hours before experimentation but were given free access to water until the start of the experiment.\nRats (age 11-16 weeks, body mass 291-365 g) were surgically fitted with gastric fistulae (Kato, Martinez et al. Peptides 16: 1257-1262, 1995). Overnight fasted rats were weighed and their gastric fistulae were uncapped and attached to flexible Tygon tubing (⅜× 1/16) into which was fitted a piece of PE205 tubing that would extend up into the stomach. Saline was injected through the narrower PE205 tubing and the effluent collected from the Tygon tubing. To ensure proper flow through the fistulae and an empty stomach, the stomach was flushed several times with ˜5 mL of room temperature saline solution until flow was easy and the effluent was clean. Gastric acid secretion was measured at 10 min intervals by injecting 5 mL of saline followed by 3 mL of air and collecting the effluent. […]\nAfter a baseline sample was collected, and the recovered volume recorded, the animal was given a subcutaneous injection of 125 μg/kg pentagastrin to stimulate gastric secretion. […] Data are expressed as μmol of acid secreted per 10 minute sampling interval (mean±SEM n=4/group)."}, "gallbladder emptying": {"system": "gallbladder emptying", "experiment": "Gallbladder emptying in mice (gallbladder weight)", "experimental": "Mice were housed in a 12:12 hour light:dark cycle room with free access to water and mouse chow until the start of the experiment. At t=0, mice were given a subcutaneous injection of 1, 10, 100, or 1000 μg/kg PYY[3-36], 1 or 10 μg/kg CCK-8, both or saline (treatment and n/group as indicated in FIG. 4). Thirty minutes later, animals were anesthetized, and their intact gallbladders removed and weighed.\nData are expressed as organ weight in mg. Activity was defined as change from the mean of the control group. Statistical significance was defined as p<0.05 by ANOVA and/or Dunnett's test."}, "[2]": {"system": "exocrine pancreatic secretion (amylase)", "experiment": "CCK-8-stimulated exocrine pancreatic secretion (amylase) in anesthetized rats", "experimental": "as §1\nRats were anesthetized with 5% halothane, maintained with 2% halothane during surgery and with 1% halothane thereafter. Tracheotomy and cannulation of the right femoral artery were performed and body temperature was controlled with a thermoregulator that switched a heated operating table. The femoral arterial line, used for blood sampling, was perfused with heparinized saline (2 U/ml) and connected to a pressure transducer for blood pressure recording. Through a midline incision, two polyethylene cannulae were inserted into the common bile-pancreatic duct at a point about 0.5 cm above where the duct enters the pancreas. The first cannula was inserted up toward the liver to collect bile. The other end of this cannula was placed into the duodenum through a small incision in the duodenum. […]\nPancreatic juice was collected over 15 min intervals between t=−15 to +60 min. The volume of pancreatic juice (measured by weight) and activities of amylase were determined for each 15-minute aliquot (Taniguchi, Yazaki et al. Eur J Pharmacol 312: 227-33, 1996). […]"}, "[3]": {"experiment": "Body weight gain in fattened C57Bl/6 (DIO) mice, continuous infusion", "experimental": "(§2) Male C57Bl/6 mice (4 weeks-old at start of study) were fed high fat (HF; 58% of dietary kcal as fat) or low fat (LF; 11% of dietary kcal as fat) chow. (30, 100, 300, or 1000 μg/kg/day) continuously for 4 weeks. Body weight and food intake were measured weekly (Surwit, Feinglos et al. Metabolism—Clinical and Experimental 44: 645-651, 1995).\nEffects of the test compound are expressed as the mean±sd of change in grams from starting weight of at least 14 mice per treatment group ((p<0.05 ANOVA, Dunnett's test (Prism v2.01, GraphPad Software Inc., San Diego, Calif.)."}, "[4]": {"experiment": "Caloric efficiency in fattened C57Bl/6 (DIO) mice, continuous infusion", "experimental": "as §2, with “Feinglos,” for “Feinglos”, “al” for “al.”\nEffects of the test compound are expressed as change in body weight (g) from the starting weight per kcal consumed. Kcal consumed was computed by multiplying the weight of food consumed (g) by the caloric density (kcal/g) specified by the manufacturer.\nActivity was defined as the change of the mean±sd of n=at least 14 mice/group. Significance was defined as p<0.05 in an ANOVA or Dunnett's test."}, "HbA1c": {"system": "HbA1c", "experiment": "Glycemic control (HbA1c) in obese diabetic (ZDF) rats, 28-day infusion", "experimental": "(§3) Diabetic fatty Zucker rats (ZDF) (7 weeks of age) were housed in a 12:12 hour light:dark cycle room and given ad libitum access to high fat rodent chow and water. After 1 week of acclimatization, blood samples were drawn, and animals were sorted by starting HbA1c to provide a similar range in each treatment group.\n(§4) Animals were implanted with osmotic pumps which delivered the doses indicated in FIG. 8 of PYY[3-36] or saline continuously to the periphery for 28 days. HbA1c was measured at weekly intervals. HbA1c levels (%) were plotted against time (Brown, Henke et al. Diabetes 48: 1415-24, 1999)."}, "food intake [5]": {"system": "food intake", "experiment": "Long term food intake study in ob/ob mouse", "settings": "long term studies, data not presented"}, "food intake [6]": {"system": "food intake", "experiment": "Long term food intake study in fa/fa rat", "settings": "long term studies, data not presented"}, "food intake [7]": {"system": "food intake", "experiment": "Food intake in ZDF rats during PYY[3-36] infusion", "settings": "ZDF rat, peripheral administration; data not presented", "experimental": "as §3, §4"}, "[8]": {"experiment": "Body weight in several obese rodent models", "settings": "peripheral administration"}, "[9]": {"settings": "1000 μg/kg/day, all time points"}, "[10]": {"settings": "continuous peripheral infusion 30-1000 μg/kg/day, 4 weeks, DIO mice"}},
  "data": [
    {"substance": "PYY[3-36]", "values": [
      {"measurement": "effect on food intake", "setting": "food intake [1]", "result": "approximately equal efficacy"},
      {"measurement": "effect on gastric emptying", "setting": "gastric emptying", "result": "significantly and dose-dependently reduced gastric emptying"},
      {"measurement": "effect on pentagastrin-stimulated gastric acid secretion", "setting": "gastric acid secretion; 100 μg/kg, acute peripheral (intraperitoneal) injection", "result": "inhibited pentagastrin-stimulated gastric acid secretion"},
      {"measurement": "ED50 for inhibition of pentagastrin-stimulated gastric acid secretion", "setting": "gastric acid secretion; acute peripheral injection, rats", "result": "≈ 20 μg/kg"},
      {"measurement": "ED50 for inhibition of gallbladder emptying", "setting": "gallbladder emptying; acute peripheral injection, mice", "result": "≈ 31 μg/kg"},
      {"measurement": "reversal of inhibition of gallbladder emptying by CCK-8", "setting": "gallbladder emptying; co-administered CCK-8, even at the highest doses of PYY[3-36] tested", "result": "could be overridden by CCK-8"},
      {"measurement": "effect on gallbladder emptying", "setting": "gallbladder emptying; doses greater or equal to 10 μg/kg, acute peripheral injection, 30 min", "result": "prevented gallbladder emptying"},
      {"measurement": "effect on CCK-8-stimulated pancreatic secretion (amylase activity in pancreatic juice)", "setting": "[2]; 30 μg/kg subcutaneous", "result": "blocked CCK-8-stimulated pancreatic secretion"},
      {"measurement": "effect on basal amylase activity", "setting": "[2]; 300 μg/kg, in the absence of CCK-8, versus saline-injected controls", "result": "no effect on basal amylase activity"},
      {"measurement": "significance of effect on body weight gain", "setting": "[3]; 300 μg/kg/day, first 3 weeks", "result": "significant"},
      {"measurement": "significance of effect on body weight gain", "setting": "[3]; [9]", "result": "significant"},
      {"measurement": "effect on body weight gain", "setting": "[3]; [10]", "result": "dose-related decrease in body weight gain"},
      {"measurement": "significance of effect on caloric efficiency", "setting": "[4]; 300 μg/kg/day, some time points", "result": "significant"},
      {"measurement": "significance of effect on caloric efficiency", "setting": "[4]; [9]", "result": "significant"},
      {"measurement": "effect on caloric efficiency (body weight gained/kcal consumed)", "setting": "[4]; [10]", "result": "dose-related decrease in caloric efficiency"},
      {"measurement": "significance of improvement in glycemic control", "setting": "HbA1c; all doses, at 28 days", "result": "significant"},
      {"measurement": "effect on long term blood glucose control (HbA1c)", "setting": "HbA1c; continuous peripheral infusion, 28 days, ZDF rats", "result": "dose-dependent improvement in long term blood glucose control"},
      {"measurement": "effect on food intake", "setting": "food intake [5]", "result": "reduced food intake"},
      {"measurement": "effect on food intake", "setting": "food intake [6]", "result": "reduced food intake"},
      {"measurement": "effect on food intake", "setting": "food intake [7]", "result": "reduced"},
      {"measurement": "effect on body weight", "setting": "[8]", "result": "dose-dependent decrease in body weight and/or rate of weight gain"}
    ]}
  ]
}
